Test system: mouse embryonic teratocarcinoma F9 cells
Experiment: Differentiation of mouse embryonic teratocarcinoma F9 cells (plasminogen activator secretion)
Assay type: cell-based
Settings: concentration producing half of the maximum amount of plasminogen activator secreted
Source text: Their activities may also be measured in tests of cell transactivation using pretransfected recombinant RAR or RXR receptors (B. A. Bernard et al, Biochemical and Biophysical Research Communication, vol. 186, 977-983 (1992); M. F. Boehm et al, Journal of Medicinal Chemistry, 37, 408-414 (1994)).
(a) After treatment with the compounds indicated, the mouse embryonic teratocarcinoma F9 cells differentiated into endodermal cells. This differentiation was characterized by the secretion of the plasminogen activator into the culture medium. The activity of the compound is expressed by the AC50 value, which represents the concentration of test compound which produces half of the maximum amount of plasminogen activator secreted.

COc1ccc(C2=Cc3ccc(C(=O)O)cc3OC2)cc1C12CC3CC(CC(C3)C1)C2 [Example 1, 3-[(3-(1-adamantyl)-4-methoxyphenyl)-2H-1-benzopyran]-7-carboxylic acid]
AC50: 0.034 µM
